## Ab-14 light chain CDR variants: yeast mating affinities

Source: Li et al. 2023 (doi:10.1038/s41467-023-39022-2), MIT Lincoln Laboratory and A-Alpha Bio; data file from the FLAb repository.

Target: peptide PDVDLGDISGINAS, taken from heptad repeat 2 (HR2) of SARS-CoV-2 spike.

Parent scFv Ab-14: VH joined to VL by a (GGGGS)3 linker. Changes lie in the light chain CDRs alone.
VH: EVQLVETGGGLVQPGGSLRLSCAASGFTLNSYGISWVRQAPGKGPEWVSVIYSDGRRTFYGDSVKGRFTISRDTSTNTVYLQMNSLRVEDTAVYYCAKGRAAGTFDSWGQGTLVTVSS
VL: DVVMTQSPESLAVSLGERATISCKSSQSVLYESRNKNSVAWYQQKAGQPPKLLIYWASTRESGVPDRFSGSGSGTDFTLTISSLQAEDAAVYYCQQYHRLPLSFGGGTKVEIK

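The starting antibody came from a phage panning campaign against this peptide. The variants were designed computationally from a first round of random CDR variants and then made and measured. Their group label is 14L_GP_Gen (GP: Gaussian process model; Gen: genetic algorithm; a sequence that several methods proposed may carry one label only). AlphaSeq pools MATa yeast showing the antibodies with MATalpha yeast showing the peptide. Pairs that bind mate more often; barcode pairs of the diploids are counted by sequencing. Read counts were normalised to the haploid input and turned into Kd by a linear fit to BCL2-family pairs of known affinity, for each replicate. There are six technical replicates.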

Variants are written as CDR1, CDR2 and CDR3 of the light chain (limits as in the source). Parent: KSSQSVLYESRNKNSVA, WASTRES, QQYHRLPLS. The read-out is the apparent dissociation constant on a log10 scale (nM): the lower, the stronger. Where no diploid with the target was found in that replicate, the entry reads "ND": below detection, most likely a poor binder, though not proof of it. Values of this round are not directly comparable with the first-round values of the same sequences. The authors averaged sequences with at least three values out of six and counted those with two or fewer as poor binders. Of ten entries with the parent sequence, four were seen in most replicates (averages 0.34 to 2.37), three in one and three in none, so single entries are noisy. Background: pairings of all light chain designs with three empty control strains gave a value in 4% of cases (median 2.64, 5th percentile 1.59). Values in that range, when seen in few replicates, are hard to tell from nonspecific mating. For each scFv, signals with the empty controls are counted beside the result, with their mean in brackets.

CDR-L1	CDR-L2	CDR-L3	replicates, log10 nM	control signals
KLSQSVLYQSRMKNSVA	NASTRES	QQYHRLPLS	0.02 / -0.08 / -0.25 / -0.29 / -0.25 / -0.10	1/18 (2.85)
KLQQSWLYESRNKNSVA	HASTRMS	QQYHRLPLS	0.26 / 0.12 / 0.38 / 0.08 / -0.02 / 0.32	4/18 (2.93)
KVSGSWLYESRNKNSVA	EASTRES	QQYHRLPLS	-0.25 / -0.29 / -0.23 / -0.31 / -0.20 / -0.16	0/18
KLSQSDLYESRNKNNVA	DASQRES	QQYHRLPLS	-0.22 / -0.38 / -0.50 / -0.56 / -0.51 / -0.11	1/18 (2.50)
KLQQSELYESRNKNSVA	GASQRES	QQYHRLPLS	-0.18 / 0.18 / -0.10 / -0.19 / 0.07 / 0.23	0/18
KFSQSDLYESRNKNSVA	NGSTRES	QQYHRLPLS	-0.24 / -0.30 / -0.14 / -0.40 / -0.44 / -0.05	0/18
KLSQSVGYESRNKNSVA	DASQRES	QQYHRLPLS	0.21 / -0.05 / -0.17 / -0.20 / 0.05 / 0.17	2/18 (2.43)
KMPQSWLYESRNKNSVA	NASTRES	QQYHRLPLS	-0.04 / -0.23 / -0.18 / -0.28 / -0.26 / -0.06	4/18 (2.74)
KLSQSVLYESRNKNSVA	NASTRPS	QQYHRLPLS	0.87 / 0.80 / 0.48 / 0.65 / 0.84 / 0.86	0/18
KLQQSDLYESRNKNSVA	GASTRLS	QQYHRLPLS	0.20 / 0.30 / 0.47 / 0.07 / 0.01 / 0.42	1/18 (1.37)
KLSQSHLYESRNKNSVA	NASTRLS	QQYHRLPLS	0.13 / 0.07 / 0.00 / -0.10 / 0.01 / 0.32	3/18 (2.96)
KLQQSYLYESRNKNSVA	SASTRES	QQYHRLPLS	-0.08 / -0.16 / -0.07 / -0.16 / -0.12 / 0.07	0/18
KVMQSWLYESRNKNSVA	NASQRES	QQYHRLPLS	0.14 / -0.09 / 0.68 / -0.07 / 0.00 / 0.36	0/18
KLPQSVWYESRNKNSVA	NASTREQ	QQYHRLPLS	-0.38 / -0.24 / -0.37 / -0.35 / -0.09 / 0.01	2/18 (2.18)
KFSQSVLYQSRNKNSVA	NASTRES	QQYHRLPLS	-0.13 / -0.49 / -0.40 / -0.14 / -0.25 / -0.22	0/18
KFEQSHLYESRNKNSVA	NASTRES	QQYHRLPLS	0.00 / -0.05 / -0.40 / -0.26 / 0.14 / 0.46	4/18 (2.93)
KFSQSDLYESRNKNSVA	EASQRES	QQYHRLPLS	-0.04 / -0.09 / 0.00 / -0.31 / -0.14 / -0.06	1/18 (2.57)
KLSQSWLYESRMKNSVA	NASQRMS	QQYHRLPLS	ND / -0.43 / -0.43 / 0.13 / -0.59 / -0.48	0/18
KLEQSVLYESRNKNSVA	NASTRFS	QQYHRLPLS	0.24 / 0.13 / -0.03 / 0.03 / 0.07 / 0.11	1/18 (3.63)
KLSQSDLYESRNKNNVA	SASTRES	QQYHRLPLS	-0.37 / -0.45 / -0.52 / -0.45 / -0.55 / -0.29	2/18 (2.28)
KLQQSKLYESRNKNSVA	NASTRLS	QQYHRLPLS	0.06 / -0.01 / 0.01 / -0.01 / -0.05 / 0.18	1/18 (1.30)
KLQQSDLYESRNKNSVA	SASTRES	QQYHRLPLS	0.19 / -0.25 / -0.50 / -0.44 / -0.05 / -0.27	2/18 (2.43)
KLSQSVLYESRNKNSVA	EASTRCQ	QQYHRLPLS	0.00 / -0.23 / -0.26 / -0.04 / -0.12 / -0.12	1/18 (2.54)
KLQQSVLYESRQKNSVA	NASTRLS	QQYHRLPLS	0.57 / 0.78 / 0.37 / 0.28 / 0.45 / 0.55	1/18 (3.19)
KVSQSVLYESRNSNSVA	DASTRES	QQYHRLPLS	0.02 / -0.08 / -0.22 / -0.20 / -0.31 / -0.08	1/18 (2.37)
KLSQSVLYESRNKNSVA	NANTRLS	QQYHRLPLS	0.30 / -0.09 / -0.03 / 0.01 / 0.15 / 0.26	2/18 (2.39)
KLPQSMLYESRNKNSVA	NASTRES	QQYHRLPLS	0.07 / -0.05 / -0.08 / -0.23 / -0.07 / -0.08	2/18 (2.60)
KVQQSNLYESRNKNSVA	NASTRLS	QQYHRLPLS	-0.03 / 0.15 / -0.03 / -0.13 / -0.05 / -0.30	0/18
KLSQSTLYESRNKNSVA	DASTRES	QQYHRLPLS	-0.32 / -0.52 / -0.66 / -0.95 / -0.73 / -0.57	0/18
KLSQSNLYESRNKNSVA	NASTREW	QQYHRLPLS	0.48 / 0.22 / 0.27 / 0.14 / 0.24 / 0.38	1/18 (3.28)
KLEQSQQYESRNKNSVA	NASTRES	QQYHRLPLS	ND / 1.81 / 0.81 / -0.05 / 0.94 / ND	0/18
KLEQSDLYESRNKNSVA	GASTRES	QQYHRLPLS	-0.28 / -0.54 / -0.47 / -0.43 / -0.44 / -0.24	1/18 (3.53)
KLMQSWLYESRMKNSVA	NASQRES	QQYHRLPLS	0.40 / 0.18 / 0.32 / 0.19 / 0.27 / 0.21	0/18
KLSQSVEYESRNKNSVA	DASTRES	QQYHRLPLS	-0.30 / -0.81 / -0.40 / -0.37 / -0.37 / -0.51	0/18
KVSQSVEYESRNKNSVA	NASTRES	QQYHRLPLS	0.68 / 0.12 / ND / 0.00 / 1.01 / 1.16	0/18
KLSQSQLYESRNFNSVA	NASQRES	QQYHRLPLS	0.42 / 0.44 / 0.46 / 0.23 / 0.38 / 0.42	1/18 (2.62)
KMSQSVLYESRNKNNVA	EASTRES	QQYHRLPLS	0.19 / 0.07 / -0.22 / -0.48 / -0.19 / -0.41	2/18 (3.09)